Our source for the Ratio values is ChEMBL document CHEMBL2331222, “Discovery of novel inhibitors of signal transducer and activator of transcription 3 (STAT3) signaling pathway by virtual screening” (Eur J Med Chem, 2013).

Where only a bound is given, the exact number is not on record here.

This experiment concerns HepG2. Nature of the experiment: Selectivity ratio of inhibitory activity for STAT3 in IL-6-stimulated human HepG2 cells to inhibitory activity for IFN-gamma-stimulated STAT1 (unknown origin) at 10 uM. It is filed as cell-based.

Turning to `CCC(Sc1nc2ccc(NC(=O)c3ccc(OC)cc3)cc2s1)C(=O)Nc1ccc(Br)cc1` (stereo unspecified), the Ratio is > 6.
